Values quoted from earlier work as cited in patent publication US7578996B2, “Cetylpyridinium chloride as an antimicrobial agent in ophthalmic compositions” (Advanced Medical Optics, Inc., priority 2004, dated 2009).

Conditions: in water

tocopherol polyethylene glycol succinate [TPGS]
critical micelle formation concentration (cmc): 200 ppm
